Structures can show the parent of a compound that is named as a salt.
Experiments:
Assay type in all cases: physicochemical
[1] = Vapor-liquid equilibrium still, separation of 1,1,1-trichloroethane from methanol
[2] = Vapor-liquid equilibrium still, separation of 1,1,1-trichloroethane from 2-butanol
[3] = Vapor-liquid equilibrium still, separation of 1,1,1-trichloroethane from n-propanol
[4] = Vapor-liquid equilibrium still, separation of 1,1,1-trichloroethane from isopropanol
[5] = Vapor-liquid equilibrium still, separation of 1,1,1-trichloroethane from ethanol
[6] = Vapor-liquid equilibrium still, separation of 1,1,1-trichloroethane from t-butanol

| SMILES | Relative Volatility [1] | Relative Volatility [2] | Relative Volatility [3] | Relative Volatility [5] | also measured |
| --- | --- | --- | --- | --- | --- |
| CCCCCCOC(C)=O [Hexyl acetate] | 1.9 |  |  |  |  |
| CCCCC(=O)CC [3-Heptanone] | 1.5 | 1.6 |  |  |  |
| CC[N+](=O)[O-] [Nitroethane] |  | 2.0 | 1.9 |  |  |
| COc1ccccc1 [Anisole] |  |  |  |  | Relative Volatility [4]: 1.55 |
| CC(C)COC(=O)C(C)C [Isobutyl isobutyrate] | 1.9 |  |  |  |  |
| CCCCCO [1-Pentanol] |  |  |  | 3.0 |  |
| CCOC(=O)/C=C\C(=O)OCC [Diethyl maleate] |  | 1.9 |  |  |  |
| CC(C)COCC(C)O (centres unmarked) [Propylene glycol isobutyl ether] |  |  | 1.9 |  |  |
| CCOCCOC(C)=O [Ethylene glycol ethyl ether acetate] |  | 1.9 |  |  |  |
| CC(C)CC(O)CC(C)C [Diisobutyl carbinol] |  |  | 1.9 |  |  |
| CN1CCCC1=O [1-Methyl-2-pyrrolidinone] |  |  | 3.0 |  |  |
| CC(=O)OCC(C)C [Isobutyl acetate] |  |  |  | 1.3 |  |
| CCCCCCOCCO [Ethylene glycol hexyl ether] |  |  | 1.9 |  |  |
| O=S1(=O)CCCC1 [Sulfolane] | 2.9 |  | 3.0 |  |  |
| CN(C)C=O [Dimethylformamide] |  |  |  | 2.0 | Relative Volatility [6]: 1.9 |
| CCCCCCC(C)=O [2-Octanone] |  |  |  | 1.45 |  |
| N#CCCCCC#N [Adiponitrile] | 1.9 | 2.7 | 2.2 | 2.0 | Relative Volatility [6]: 1.4 |
| CCCC(=O)OCC(C)C [Isobutyl butyrate] | 4.0 | 1.5 | 1.3 | 1.25 | Relative Volatility [4]: 1.25 |
| OCc1ccccc1 [Benzyl alcohol] | 3.0 |  |  |  |  |
| COC(=O)c1ccccc1 [Methyl benzoate] | 2.2 | 1.6 |  | 1.45 | Relative Volatility [4]: 1.4 |

From patent US5196094A, “Separation of 1,1,1-trichloroethane from the lower alcohols by extractive distillation” (priority 1991, dated 1993)
